The values below come from ChEMBL document CHEMBL1938260.

Sequences of proteins named here, by UniProt entry; tags and fusion partners are left off. A change or cut given only in a name is not applied to a line headed by its entry.
UniProt P33535, whole entry, looked up: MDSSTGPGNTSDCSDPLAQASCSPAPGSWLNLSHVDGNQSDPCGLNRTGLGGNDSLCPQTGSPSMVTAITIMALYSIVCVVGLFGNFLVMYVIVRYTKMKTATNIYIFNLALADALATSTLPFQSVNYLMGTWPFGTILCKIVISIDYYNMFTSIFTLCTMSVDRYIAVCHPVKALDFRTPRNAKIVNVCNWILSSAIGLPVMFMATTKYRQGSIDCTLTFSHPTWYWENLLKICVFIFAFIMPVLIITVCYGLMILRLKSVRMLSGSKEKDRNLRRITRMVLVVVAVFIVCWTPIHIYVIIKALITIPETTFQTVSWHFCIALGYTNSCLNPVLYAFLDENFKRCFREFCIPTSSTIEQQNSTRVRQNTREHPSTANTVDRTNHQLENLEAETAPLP
UniProt P32300, whole entry, looked up: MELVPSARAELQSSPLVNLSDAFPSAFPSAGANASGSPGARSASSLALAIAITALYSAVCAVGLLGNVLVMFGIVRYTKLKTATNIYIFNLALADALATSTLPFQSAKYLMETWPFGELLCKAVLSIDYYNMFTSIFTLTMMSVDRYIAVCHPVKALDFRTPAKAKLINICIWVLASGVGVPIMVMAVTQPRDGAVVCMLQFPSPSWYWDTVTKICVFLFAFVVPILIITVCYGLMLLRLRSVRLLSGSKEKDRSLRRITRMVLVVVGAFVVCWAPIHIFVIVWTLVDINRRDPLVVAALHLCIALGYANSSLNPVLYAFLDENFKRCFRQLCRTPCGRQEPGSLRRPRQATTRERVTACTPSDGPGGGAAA
UniProt P41145: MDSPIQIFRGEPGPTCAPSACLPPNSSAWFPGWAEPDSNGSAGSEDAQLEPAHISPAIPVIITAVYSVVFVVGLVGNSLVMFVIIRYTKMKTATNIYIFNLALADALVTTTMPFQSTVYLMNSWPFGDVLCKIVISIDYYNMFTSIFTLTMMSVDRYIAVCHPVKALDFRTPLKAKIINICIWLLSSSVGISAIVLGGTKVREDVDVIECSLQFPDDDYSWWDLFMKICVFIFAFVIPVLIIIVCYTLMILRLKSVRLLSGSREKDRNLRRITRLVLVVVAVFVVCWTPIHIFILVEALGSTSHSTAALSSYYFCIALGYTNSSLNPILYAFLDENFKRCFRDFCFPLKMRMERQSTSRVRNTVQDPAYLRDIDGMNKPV

Assay [1] deals with Mu-type opioid receptor (Rattus norvegicus) (UniProt P33535). In words: Displacement of [3H]diprenorphine from rat MOPR expressed in CHO cells at 3 uM. (In general: In a radioligand displacement assay an active substance lowers the binding of a labelled ligand.)
Assay [2] deals with Delta-type opioid receptor (Mus musculus) (UniProt P32300). Nature of the assay: Displacement of [3H]diprenorphine from mouse DOPR expressed in CHO cells at 3 uM.
The target of assay [3] is Kappa-type opioid receptor (Homo sapiens) (UniProt P41145). Nature of the assay: Agonist activity at human KOPR expressed in CHO cells assessed as [35S]GTPgammaS binding at 3 uM after 60 mins by liquid scintillation counting relative to U50,488H. (In general: GTPγS resists hydrolysis and so accumulates on activated G proteins.)
For assay [4] the target is unchanged. In words: Agonist activity at KOPR expressed in human U2OS cells co-expressing GFP-tagged beta-arrestin2 assessed as translocation of GFP-tagged beta-arrestin2 at 10 uM incubated 120 mins in serum deprived medium prior drug addition measured after 10 mins by confocal microscopy.
The target is the same in assay [5]. Nature of the assay: Agonist activity at human KOPR expressed in CHO cells assessed as [35S]GTPgammaS binding after 60 mins by liquid scintillation counting relative to U50,488H.
The target is the same in assay [6]. In words: Agonist activity at human KOPR expressed in U2OS cells assessed as beta-arrestin2 recruitment after 90 mins by DiscoveRx PathHunter assay relative to salvA. (In general: Arrestin recruitment assays detect the binding of arrestin to an activated receptor.)
Assay [7] has the same target. Nature of the assay: Ratio of EC50 for agonist activity at human KOPR expressed in U2OS cells assessed as beta-arrestin2 recruitment to EC50 for agonist activity at human KOPR expressed in CHO cells assessed as [35S]GTPgammaS binding.

Activity calls are given as the source filed them. The rule behind the calls is not given here. Bounds are passed on as bounds.

Turning to `CN(C(=O)Cc1ccc(Cl)c(Cl)c1)C1CCCCC1N1CCCC1` (stereo unspecified), the inhibition (usually the change of the read-out against control, counted positive when it falls) in assay [1] was < 50%.

For `COC(=O)[C@@H]1C[C@H](OC(C)=O)C(=O)[C@H]2[C@@]1(C)CC[C@H]1C(=O)O[C@@H](c3cc(Br)oc3Br)C[C@]21C`, in assay [2], the outcome was inactive. For the same compound, the Emax (in general, the maximal effect, on the per cent scale that the assay sets) in assay [3] was found to be 100%.

Consider `COC(=O)[C@@H]1C[C@H](OC(C)=O)C(=O)[C@H]2[C@@]1(C)CC[C@H]1C(=O)O[C@@H](c3ccoc3)C[C@]21C`, for which the outcome in assay [4] was Active. Besides, in assay [2], the result was inactive.

For `COC(=O)[C@@H]1C[C@H](OC(C)=O)C(=O)[C@H]2[C@@]1(C)CC[C@H]1C(=O)O[C@@H](c3ccoc3Br)C[C@]21C`, in assay [2], the result was inactive. For the same compound, the inhibition in assay [1] is < 50%.

Turning to `COCO[C@H]1C[C@@H](C(=O)OC)[C@]2(C)CC[C@H]3C(=O)O[C@@H](c4ccoc4)C[C@]3(C)[C@H]2C1=O`, the result in assay [2] was inactive. The Emax in assay [3] came out at 100%. The inhibition in assay [1] was < 50%.

As to `COC(=O)[C@@H]1C[C@H](OC(C)=O)C(=O)[C@H]2[C@@]1(C)CC[C@H]1C(=O)O[C@H](c3ccoc3)C[C@]21C`, the outcome in assay [4] was Active. In addition, in assay [1], the inhibition is < 50%.

Regarding `COC(=O)[C@@H]1C[C@H](O)C(=O)[C@H]2[C@@]1(C)CC[C@H]1C(=O)O[C@@H](c3ccoc3)C[C@]21C`, the outcome in assay [2] was inactive. Moreover, the maximal effect (Emax) in assay [3] stood at 100%. Also, the inhibition in assay [1] is < 50%.

With `CCOCO[C@H]1C[C@@H](C(=O)OC)[C@]2(C)CC[C@H]3C(=O)O[C@@H](c4ccoc4)C[C@]3(C)[C@H]2C1=O`, the outcome in assay [4] was Active. For the same compound, the Emax in assay [5] is 103%; in assay [6], 127%. Further, the result in assay [2] was inactive. Further, the Ratio EC50 in assay [7] is 3. Further, the inhibition in assay [1] was < 50%.
